Patent publication US20230114808A1, “THERAPEUTIC RNA FOR PROSTATE CANCER” (BioNTech SE, priority 2019, published 2023)

What was measured:
[1] = Biodistribution and clearance of DOTMA by LC/MS after IV RNA(LIP)
[2] = mouse, in vivo, iv

CCCCCCCC/C=C\CCCCCCCCOCC(C[N+](C)(C)C)OCCCCCCCC/C=C\CCCCCCCC (stereo not drawn) [DOTMA, 1,2-di-O-octadecenyl-3-trimethylammonium propane]
DOTMA concentration in all other organs relative to spleen samples ([1]; eight weekly injections): not more than 5% | DOTMA concentration relative to the maximum values ([1]; liver and spleen, within 20 days, single administration): about 50% | time to delivery to the spleen (and other organs) [2]: in less than one hour
